Binding of CDR-mutated scFvs to a peptide of the spike HR2 region

From the AlphaSeq antibody data of Li et al. 2023 (doi:10.1038/s41467-023-39022-2), copy in the FLAb collection.

Target peptide (SARS-CoV-2 spike, HR2 region): PDVDLGDISGINAS

Each scFv is VH, three GGGGS repeats, VL, as in the parent Ab-14, and differs from it in the CDRs of the light chain only.
VH: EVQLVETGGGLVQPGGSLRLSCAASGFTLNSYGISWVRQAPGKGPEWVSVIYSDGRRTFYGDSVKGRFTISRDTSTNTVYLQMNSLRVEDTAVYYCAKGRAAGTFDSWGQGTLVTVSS
VL: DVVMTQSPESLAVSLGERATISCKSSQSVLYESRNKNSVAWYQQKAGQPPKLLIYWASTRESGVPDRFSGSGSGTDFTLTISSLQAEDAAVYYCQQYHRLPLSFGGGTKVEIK

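The starting antibody came from a phage panning campaign against this peptide. These sequences belong to a second round, designed from the earlier measurements on random variants of the parent. Several design methods are mixed in this list. In AlphaSeq, yeast of one mating type display the scFv and yeast of the other type display the target. Binding brings cells together so that they mate, and sequencing counts the barcode pairs among the diploids. Read counts were normalised to the haploid input and turned into Kd by a linear fit to BCL2-family pairs of known affinity, for each replicate. The assay was run in six technical replicates.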

Variants are written as CDR1, CDR2 and CDR3 of the light chain (limits as in the source). Parent: KSSQSVLYESRNKNSVA, WASTRES, QQYHRLPLS.
This list holds designs with more than six substitutions.
Kd is apparent (estimated from mating counts) and averaged on the log scale over replicates with a signal. Smaller is tighter.
Background: pairings of all light chain designs with three empty control strains gave a value in 4% of cases (median 430 nM, 5th percentile 38 nM). Values in that range, when seen in few replicates, are hard to tell from nonspecific mating. Also given: how often the same scFv was detected with the empty control strains.

| CDR-L1 | CDR-L2 | CDR-L3 | apparent Kd | seen in | control signals |
|---|---|---|---|---|---|
| DLTVSDNYGSQLENNIA | QGVQKCE | QQYSRLPLA | 920 pM | 6 of 6 | 2 of 18 |
| MLSQMWALGMKVSNSVA | QAQTRFN | QQYERLPLI | 180 nM | 5 of 6 | 1 of 18 |
| QISMSVGMTSFNKNSVA | ENSTREN | QQYDRLPLS | 610 nM | 6 of 6 | 1 of 18 |
| KISGLSNHESSVHNNVA | ENVTRVQ | QQYFRLPLA | 12 nM | 6 of 6 | 1 of 18 |
| MVYESMDQALRTHNSIA | DNQTREN | QQYDRLPLS | 810 nM | 6 of 6 | 1 of 18 |
| KQSQAVWYEQRNKNNVA | EGSTRES | QQYHRLPLS | 480 pM | 6 of 6 | 2 of 18 |
| KVPQSMLYESRNANNVA | NAEQRES | QQYHRLPLS | 560 pM | 6 of 6 | 0 of 18 |
| TISNSFMMENQFRNSVA | QASTRES | QCYDRLPLS | 8.3 nM | 6 of 6 | 2 of 18 |
| KISGLSNHQSSVSNNVA | ENVTRVN | QQYFRLPLA | 17 nM | 6 of 6 | 3 of 18 |
| KSSQPNLYESENKNSVA | YASTRES | PQRDRLPLS | 7.3 nM | 5 of 6 | 1 of 18 |
| QIYQAMHTLSQHKDNVA | DVNERGS | QQYYRLPLS | 4.5 nM | 6 of 6 | 0 of 18 |
| KLGATVGYEQRNKSRVA | DNSTRES | QQYDRLPLS | 290 nM | 5 of 6 | 1 of 18 |
| KLPLATMQESVSKNNVA | ELSTRGS | QQYHRLPLA | 9.9 nM | 6 of 6 | 0 of 18 |
| KLPQSWLYESRNSNSVA | HASQRME | QQYHRLPLS | 1.4 nM | 6 of 6 | 1 of 18 |
| MLSGVLHMLGQKKNSIA | DLVMRAN | QQYHRLPLM | 96 nM | 6 of 6 | 1 of 18 |
| MFSQLMAYGSRYKNSVA | QASTRED | QQYERLPLS | 2.2 nM | 6 of 6 | 1 of 18 |
| ALGDVMRMEHNKKNSIA | DMSTRES | QQYHRLPLS | 730 pM | 6 of 6 | 3 of 18 |
| KISMLSENQLKNRNSVA | ELVTRMS | QQYNRLPLS | 150 nM | 6 of 6 | 0 of 18 |
| LQSQSELLESRNHNSVA | EASTRMD | QQYHRLPLS | 46 nM | 6 of 6 | 1 of 18 |
| MVGQGLMGESRAKNSIA | QASLRCD | QQYHRLPLI | 4.2 nM | 6 of 6 | 1 of 18 |
| IVSQLMLWGMHVKNSIA | EAQTRLN | QQYDRLPLM | 36 nM | 6 of 6 | 1 of 18 |
| KISMLINQTFEQSNNVA | EMVTREK | QQYNRLPLS | 17 nM | 6 of 6 | 0 of 18 |
| TISQMSQLFSQTINNVA | EVSTRLN | QQYDRLPLS | 13 nM | 6 of 6 | 3 of 18 |
| TLTQVTMVESYNKDSVA | QASTRLE | QDYHRLPLS | 3.5 nM | 6 of 6 | 0 of 18 |
| MISQLFNMGMFAINSVA | QASERCN | QQYDRLPLM | 39 nM | 2 of 6 | 0 of 18 |
| QIGMLLNFELQKINNVA | QMETRVK | QQYDRLPLS | 9.0 nM | 6 of 6 | 0 of 18 |
| MISNVMNTLTRYGNNVA | DLTEREK | QQYFQLPLS | 11 nM | 6 of 6 | 0 of 18 |
| QINMEMYHDLNDAQNVA | DAMTEIP | QQYNRLPLS | 16 nM | 6 of 6 | 0 of 18 |
| KIHCRELMHGGQINNIA | EAAKLVE | QQYALLPLA | 18 nM | 6 of 6 | 0 of 18 |
| KISQMIRVGSTHGNSIA | EEQTRAK | QQYHRLPLS | 10 nM | 6 of 6 | 0 of 18 |
| KVSMQQLYSSRNKNQVA | DASTRES | QQYHRLPLS | 1.4 nM | 6 of 6 | 1 of 18 |
| NLSIQNQPQNMFANNVA | QTESRCE | QQYNQLPLA | 6.9 nM | 6 of 6 | 0 of 18 |
| KLMQSMPYESRNANNVA | YASTRES | QQYHRLPLS | 790 pM | 6 of 6 | 1 of 18 |
| KLSMSYRYESENKNSIA | ELVTRMS | QQYHRLPLS | 18 nM | 6 of 6 | 0 of 18 |
| SITQLVAYGSRNRNSVA | QMSTRES | QQYDRLPLS | 1.2 nM | 6 of 6 | 0 of 18 |
| TINQSAQMESHNKNSVA | DLSVRGS | QQYHRLPLS | 1.4 nM | 6 of 6 | 1 of 18 |
| KCAQWVDYGSRNKNSVA | DASTREQ | QQYHRLPLS | 300 pM | 6 of 6 | 1 of 18 |
| NMQMQQDRMQNAKQNVA | GVDMREE | QQYFRLPFL | 480 pM | 6 of 6 | 2 of 18 |
| KMSQSVEGLDRNWNSVA | YASTREM | QQYHRLPLS | 1.7 nM | 6 of 6 | 2 of 18 |
| KLMQEDEYQSRMKNSVA | HASLRES | QQYHRLPLS | 1.8 nM | 6 of 6 | 1 of 18 |
| KLLQSVNYGSRALNSVA | QMETRED | QQYHRLPLS | 5.2 nM | 6 of 6 | 0 of 18 |
| SLYENYQMGGQHTNAVA | DANQMMR | QHYNRLPLA | 7.3 nM | 6 of 6 | 1 of 18 |
| KISMLVNFLGKNMNSVA | QMSTRES | QQYDRLPLS | 9.2 nM | 6 of 6 | 1 of 18 |
| MIYETMDYAMRKQNSIA | DNQTRED | QQYAHLPLS | 110 nM | 6 of 6 | 0 of 18 |
| MLSEVLHMLGVKKNSIA | DLVIRAN | QQYHRLPLF | 13 nM | 2 of 6 | 0 of 18 |
| ALYSTGYQVDSQMQAIA | DGHERIS | QQYFRLPLN | 1.5 nM | 6 of 6 | 0 of 18 |
| KVSQSMWYESRMKNSVA | NASMREQ | QQYHRLPLQ | 5.1 nM | 6 of 6 | 1 of 18 |
| KLSMSYRYESMNKNSIA | ELVTRMS | QQYHRLPLS | 12 nM | 6 of 6 | 0 of 18 |

In the paper, a design with two or fewer of six values counts as a poor binder.
Values of this round are not directly comparable with the first-round values of the same sequences.